{"source": "patent EP3738614A1", "about": "“METHODS FOR PRODUCING HOMOGENEOUS ANTIBODY DRUG CONJUGATES” (priority 2019, dated 2020)", "key": {"[1]": {"tested_on": "HER2-positive breast cancer cells SKBR3", "assay": "MTS cell-based cytotoxicity / cell inhibition assay", "details": "SK-BR-3 cells, 72 hours incubation, FIG. 9", "source_text": "HER2-positive breast cancer cells SKBR3 were used to assess the cytotoxicity of the homogeneous DAR 2 T-MMAE (trastuzumab conjugated to MMAE) previously obtained. Its biological activity was compared to an in-house heterogeneous DAR 4 T-MMAE (control) using an in vitro MTS cell-based assay. SK-BR-3 cells at the logarithmic growth phase were washed with sterile PBS 1x (HyClone), treated with trypsin (Sigma), re-suspended in 10% Fetal Bovine Serum (Sigma) DMEM medium (Sigma) with cell density at 2x10^5 cells / ml and seeded in a 96-well cell culture plate (Corning) by applying 50 µL of cell suspension per well. The plates were incubated at 37°C in a humidified 5% CO2 incubator for 24 hours. Next, samples to be analyzed were diluted to the concentration range to be tested and 50 µL were applied to the cell culture wells under sterile conditions by using decreasing sample concentrations. An entire cell culture plate was required to analyze 1 sample because 7 replicates were analyzed per concentration. The last row of each plate was used as control, which consisted of cells in medium without sample to be tested. The plates were incubated at 37°C in a humidified 5% CO2 incubator for 72 hours. After incubation, each well was treated with 20 µL MTS solution (Promega, WI, USA) followed by incubation for 3 hours. The absorbance at 405 nm was measured with a Labtech LT-4000 microplate reader."}, "[2]": {"tested_on": "BT474 human breast cancer cells", "assay": "Tumor growth inhibition in orthotopic breast cancer model", "format": "in vivo, athymic nude mice", "description": "The efficacy of the ADC from EXAMPLE 4 in tumor growth inhibition was tested in an orthotopic model of human BT747 breast cancer cells in athymic nude mice.\nBT474 human breast cancer cells were inoculated i.m.f.p into the right abdominal mammary fat pad in athymic nude mice. Once tumors were established, intravenous treatment with the ADC or the vehicle was started in a 2-dose administration. Thereafter, tumor volume, body weight and the appearance of clinical adverse effects were monitored along time. At the end time point, mammary primary tumor and main organs (liver, kidneys, spleen, lungs and heart) were excised and collected."}}, "data": [{"substance": "Homogeneous T-MMAE DAR 2", "values": [{"measurement": "antiproliferative effect on the target cells (% Proliferation)", "setting": "[1]", "result": "had an antiproliferative effect"}, {"measurement": "Tumor Volume versus vehicle", "setting": "[2]; day 8, before the second ADC dose, T-test p = 0.0003, FIG. 10", "result": "much smaller volumes"}, {"measurement": "animals showing measurable tumors", "setting": "[2]; end-point (day 23), intravenous, 2-dose administration, vehicle group 100%", "result": 33, "unit": "%"}, {"measurement": "efficacy of treatment in tumor growth inhibition", "setting": "[2]; intravenous, 2-dose administration, monitored to day 23, FIG. 10", "result": "extremely effective"}]}]}
